One assay deals with HL-60. The assay can be described thus: CD33 cell killing experiment by MTS method, HL-60. The class given is cell-based, Human. Particulars: HL-60, CD33 moderate expression, 5 days, read-out: Test drug IC50. The protocol:
(§1) Pharmacodynamic test at cellular level: cell plating was performed on a 96-well plate in a certain density. After the cells adhered to the wall (usually taking at least 4 h), a series of drugs in several folds of dilution were added to each well plate to act for a certain period of time, for killing the cells. At the end of action of the drugs, a certain amount of MTS was added to react at 37° C. under 5% CO2 for 1-4 h. After color development using the MTS reagent, the OD 490 nm absorbance value was detected using a microplate reader, and then the IC50 for cell killing was analyzed and calculated.
(§2) Before addition, according to the concentration of each test sample, a drug (5×mother liquor concentration) was prepared using a preheated 1% FBS culture medium according to the initial concentration of 5.0 μM, and then diluted according to 10 folds of gradient concentration, totaling 8 detection points, followed by standing for later use. During the preparation, each concentration was uniformly mixed using an oscillator, specifically, oscillating for 2-3 sec at a time, with an interval of 1 sec, and then oscillating again, repeating 2-3 times.
(§3) The final concentration of the antibody and the antibody conjugated drug was 0 (Vehicle), 0.6 pM, 4.25 pM, 29.75 pM, 0.21 nM, 1.46 nM, 10.20 nM, 71.43 nM, 500 nM.
(§4) • 1) Cell revival: after preheating in a 37° C.′ water bath, 9 mL of the culture medium was taken and put in a centrifuge tube for later use; the cells were taken out from liquid nitrogen, immediately quickly shaked at 37° C.′ to fully thaw, then transferred into the centrifuge tube, and centrifuged at 1000 rpm for 3 min at room temperature: the supernatant was discarded, and the precipitate was re-suspended with 1 mL of complete culture medium, where the process should be gentle, to prevent bubbles from being blown out, thereby reducing damage to the cells; the cells were transferred into a culture flask, and cultivated in a cell incubator at 37° C., 5% CO2 and 95% relative humidity. […]

Chains of the proteins cited; added tags and fusions are not shown. Residues count along the entry.
UniProt P20138, 18-364: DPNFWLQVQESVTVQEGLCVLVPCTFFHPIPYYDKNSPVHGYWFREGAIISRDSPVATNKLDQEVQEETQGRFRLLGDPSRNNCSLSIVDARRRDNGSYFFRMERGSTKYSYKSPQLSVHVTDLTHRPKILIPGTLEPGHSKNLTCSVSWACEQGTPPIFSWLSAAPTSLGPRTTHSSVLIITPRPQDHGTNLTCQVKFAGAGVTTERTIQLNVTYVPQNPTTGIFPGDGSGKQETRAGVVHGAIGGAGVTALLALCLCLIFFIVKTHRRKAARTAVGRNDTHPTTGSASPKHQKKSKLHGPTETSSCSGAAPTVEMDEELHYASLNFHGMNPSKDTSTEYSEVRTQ

The subject of a further assay is A431. The assay is described as follows: CD33 cell killing experiment by MTS method, A431. The class given is cell-based, Human. Particulars: A431, CD33 negative, 5 days, read-out: Test drug IC50. Here is the method: as §1, §2, §3, §4
On the technique in general: Tetrazolium dyes change colour on reduction, which living cells bring about.

The test system of another assay is HEL92.1.7. The assay can be described thus: CD33 cell killing experiment by MTS method, HEL92.1.7. The class given is cell-based, Human. To be noted: HEL92.1.7, CD33 high expression, 5 days, read-out: Test drug IC50. The protocol: as §1, §2, §3, §4
For assay [1], the target named is recombinant human CD33 protein (Homo sapiens, UniProt P20138). The assay can be described thus: Binding of anti-CD33 antibody-drug conjugate to recombinant human CD33 protein by ELISA. To be noted: in words, 3-fold gradient from 2 μg/mL. The protocol: The binding ability of antibody to antigen can be preliminarily judged by ELISA. Here, recombinant human CD33 protein was immobilized on an enzyme strip, and tested with the addition of a series of concentration gradients of CD33 antibody. • 1. Coating: coating with CD33 diluted to 0.5 ng/ml, using 1×PBS, at 100 μL per well, at 4° C. overnight. • 2. Plate washing: washing the plate with a plate wash buffer (1×PBS+0.05% Tween 20) 3 times, at 200 μL per well, while standing for 1 min each time. • 3. Sealing: after the 3rd patting-dry of the wash buffer, sealing with a sealing buffer (1/PBS+0.05% Tween20+1% BSA), at 200 μL per well, at 37° C. for 1 h. • 4. Plate washing: washing the plate with the plate wash buffer 3 times, at 200 μL per well, while standing for 1 min each time. • 5. Primary antibody loading: diluting the antibody-drug conjugate (same as Test example 1) at a 3-fold gradient from 2 μg/mL using a sample diluent (1×PBS+0.05% Tween20+1% BSA); washing the plate with the plate wash buffer 3 times, at 200 μL per well, while standing for 1 min each time. • 6. Secondary antibody loading: diluting Solarbio rabbit anti-human antibody at a ratio of 1:10000 with an assay buffer (1<PBS+0.05% Tween20+1% BSA) to 100 μL per well, while standing at 37° C. for 1 h. • 7. Plate washing: washing the plate with the plate wash buffer 3 times, at 200 μL per well, while standing for 1 min each time. • 8. Reading: after 7 min of color development with the addition of a TMB color development liquid (50 μL per well), adding 2M H2SO4 (50 μL per well) to terminate it. Plate reading using a microplate reader at 450 nm.

A further assay deals with U937. The assay is described as follows: CD33 cell killing experiment by MTS method, U937. Format: cell-based, Human. Particulars: U937, CD33 moderate expression, 5 days, read-out: Test drug IC50. Here is the method:
as §1, §2, §3, §4

In a further assay the test system is CMK. The assay can be described thus: CD33 cell killing experiment by MTS method, CMK. Format: cell-based, Human. To be noted: CD33 moderate expression, 5 days, read-out: Test drug IC50. Here is the method:
as §1, §2, §3, §4

B1: ANTI-CD33-R01-1 (2) - Ex01 (8) (conjugate)
light: DIQLTQSPSTLSASVGDRVTITCRASESLDNYGIRFLTWFQQKPGKAPKLLMYAASNQGSGVPSRFSGSGSGTEFTLTISSLQPDDFATYYCQQTKEVPWSFGQGTKVEVKRTVAAPSVFIFPPSDEQLKSGTASVVCLLNNFYPREAKVQWKVDNALQSGNSQESVTEQDSKDSTYSLSSTLTLSKADYEKHKVYACEVTHQGLSSPVCTKSFNRGEC
heavy: EVQLVQSGAEVKKPGSSVKVSCKASGYTITDSNIHWVRQAPGQSLEWIGYIYPYNGGTDYNQKFKNRATLTVDNPTNTAYMELSSLRSEDTAFYYCVNGNPWLAYWGQGTLVTVSSASTKGPSVFPLAPSSKSTSGGTAALGCLVKDYFPEPVTVSWNSGALTSGVHTFPAVLQSSGLYSLSSVVTVPSSSLGTQTYICNVNHKPSNTKVDKRV[human IgG1 Fc not spelt out]
As to B1, the IC50 was 2.22 nM in the assay with HL-60; 14.7 nM in the assay on A431; 2.14 nM in the assay with HEL92.1.7; 6.63 nM in the assay with U937; 2.52 nM in the assay with CMK. Besides, the “binding ability to recombinant human CD33 protein, compared with naked anti-CD33 antibody” value in assay [1] was “basically the same”.

By IC50 is commonly meant the concentration at which inhibition is half-maximal.
